The source of these data is patent US12059464B2, “Combination therapy involving antibodies against Claudin 18.2 for treatment of cancer” (Astellas Pharma Inc., priority 2012, dated 2024).

The test system of the data set is NUGC-4 xenografts. In words: In vivo tumor targeting of Dyelight 680-labeled antibodies (fluorescence imaging). The note with it: 24 hours after i.v. injection; 80 μg Dyelight 680-labeled antibody. Further details: species or system nude mice.

With “Trastuzumab: antibody whose target is HER2/neu; Dyelight 680-labeled positive control [reference compound]”, the “localisation of labeled antibody, live imaging” value was “detected exclusively in the xenografts”.
